This assay deals with csGRP78. Briefly: Blocking of csGRP78 expression by SRC inhibitors (summary statement). Conditions: clinically relevant dose. Format: cell-based.

The values below come from patent publication US20190076431A1, “SRC INHIBITOR TO BLOCK CELL SURFACE GRP78 EXPRESSION” (University of Southern California, priority 2016, published 2019).

Consider `Cc1nc(Nc2ncc(C(=O)Nc3c(C)cccc3Cl)s2)cc(N2CCN(CCO)CC2)n1` [Dasatinib, dasatinib], for which the csGRP78 expression result is on record as “can block csGRP78 expression at clinically relevant dose”.
